The text below walks through data of patent US20250320214A1, “ORGANIC COMPOUNDS” (INTRA-CELLULAR THERAPIES, INC., priority 2022, published 2025).

By UniProt entry, the sequences of proteins in these tests, tags left out. Residues count along the entry.
UniProt P21728, whole entry: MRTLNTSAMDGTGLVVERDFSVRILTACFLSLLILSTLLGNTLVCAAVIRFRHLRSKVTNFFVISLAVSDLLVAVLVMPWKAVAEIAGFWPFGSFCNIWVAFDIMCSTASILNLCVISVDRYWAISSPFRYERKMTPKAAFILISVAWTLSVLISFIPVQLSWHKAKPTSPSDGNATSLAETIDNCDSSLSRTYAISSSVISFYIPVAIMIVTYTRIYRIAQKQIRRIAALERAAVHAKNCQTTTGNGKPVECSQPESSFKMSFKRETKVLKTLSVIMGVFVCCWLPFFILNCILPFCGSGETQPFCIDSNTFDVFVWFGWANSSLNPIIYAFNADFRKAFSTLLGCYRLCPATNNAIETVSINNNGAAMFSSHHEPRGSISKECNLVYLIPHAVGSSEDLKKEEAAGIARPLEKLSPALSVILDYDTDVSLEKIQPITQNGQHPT
UniProt P35372, whole entry: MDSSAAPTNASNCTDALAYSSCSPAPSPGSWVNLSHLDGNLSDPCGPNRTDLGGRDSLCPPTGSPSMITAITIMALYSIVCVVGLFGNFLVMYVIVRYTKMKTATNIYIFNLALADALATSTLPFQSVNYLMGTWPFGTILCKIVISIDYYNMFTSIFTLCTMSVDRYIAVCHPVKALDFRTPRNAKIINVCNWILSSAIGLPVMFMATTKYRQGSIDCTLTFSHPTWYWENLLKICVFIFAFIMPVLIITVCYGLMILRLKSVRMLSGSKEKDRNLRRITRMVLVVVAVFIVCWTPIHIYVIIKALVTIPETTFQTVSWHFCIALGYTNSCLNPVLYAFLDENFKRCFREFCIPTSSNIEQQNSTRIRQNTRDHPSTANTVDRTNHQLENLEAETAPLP
UniProt P31645, whole entry: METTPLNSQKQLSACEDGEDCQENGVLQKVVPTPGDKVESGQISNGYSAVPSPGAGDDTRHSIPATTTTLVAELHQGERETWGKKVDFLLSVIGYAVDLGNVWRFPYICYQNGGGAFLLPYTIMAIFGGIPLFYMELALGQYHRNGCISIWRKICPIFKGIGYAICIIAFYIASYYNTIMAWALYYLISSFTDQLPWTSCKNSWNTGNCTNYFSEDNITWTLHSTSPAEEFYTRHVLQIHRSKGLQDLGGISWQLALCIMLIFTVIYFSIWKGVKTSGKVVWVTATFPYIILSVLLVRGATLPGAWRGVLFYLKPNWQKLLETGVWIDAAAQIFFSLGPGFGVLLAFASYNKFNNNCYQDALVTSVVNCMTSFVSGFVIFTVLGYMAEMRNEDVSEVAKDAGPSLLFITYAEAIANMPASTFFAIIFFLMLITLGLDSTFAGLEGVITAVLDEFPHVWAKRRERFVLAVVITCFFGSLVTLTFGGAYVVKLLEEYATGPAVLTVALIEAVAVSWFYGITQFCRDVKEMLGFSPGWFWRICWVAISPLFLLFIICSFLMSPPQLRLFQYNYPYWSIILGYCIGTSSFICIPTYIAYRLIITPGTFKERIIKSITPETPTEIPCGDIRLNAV
UniProt P14416, 1-414 isoform 2: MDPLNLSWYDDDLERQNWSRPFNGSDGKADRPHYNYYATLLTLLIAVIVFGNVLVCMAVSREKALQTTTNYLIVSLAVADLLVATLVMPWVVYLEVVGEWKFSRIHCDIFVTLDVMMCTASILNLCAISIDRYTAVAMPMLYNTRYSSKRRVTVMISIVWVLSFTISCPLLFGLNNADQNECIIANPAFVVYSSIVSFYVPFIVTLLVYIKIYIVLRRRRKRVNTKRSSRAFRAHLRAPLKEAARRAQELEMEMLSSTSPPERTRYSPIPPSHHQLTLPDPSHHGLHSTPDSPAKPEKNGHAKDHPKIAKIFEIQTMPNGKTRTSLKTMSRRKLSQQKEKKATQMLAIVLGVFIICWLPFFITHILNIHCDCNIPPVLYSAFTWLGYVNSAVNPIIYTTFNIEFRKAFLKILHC
UniProt P28223, whole entry: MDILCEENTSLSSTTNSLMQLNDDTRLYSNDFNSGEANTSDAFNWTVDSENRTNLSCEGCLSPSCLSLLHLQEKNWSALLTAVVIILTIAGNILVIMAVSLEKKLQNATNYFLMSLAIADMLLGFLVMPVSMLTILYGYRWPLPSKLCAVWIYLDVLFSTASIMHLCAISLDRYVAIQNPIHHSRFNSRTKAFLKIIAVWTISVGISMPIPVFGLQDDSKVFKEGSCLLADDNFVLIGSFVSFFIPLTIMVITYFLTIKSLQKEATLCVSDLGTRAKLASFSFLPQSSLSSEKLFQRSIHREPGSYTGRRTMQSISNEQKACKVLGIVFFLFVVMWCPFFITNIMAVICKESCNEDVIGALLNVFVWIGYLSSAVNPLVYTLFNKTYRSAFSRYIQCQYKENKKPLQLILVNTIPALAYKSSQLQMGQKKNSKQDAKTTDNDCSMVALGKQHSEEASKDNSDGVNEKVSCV

One experiment deals with D1 (Homo sapiens, UniProt P21728). The experiment can be described thus: Receptor binding, D1. Conditions: read-out: D1 Ki.
Another experiment concerns the target Mu opioid receptor (Homo sapiens, UniProt P35372). The experiment can be described thus: Receptor binding, Mu opioid receptor. Conditions: read-out: Mu Ki.
A further experiment deals with SERT (Homo sapiens, UniProt P31645). Nature of the experiment: Receptor binding, SERT. Conditions: read-out: SERT Ki.
For another experiment, the target named is D2 (Homo sapiens, UniProt P14416). Nature of the experiment: Receptor binding, D2. Conditions: read-out: D2 Ki.
The target of the next experiment is 5-HT2A (Homo sapiens, UniProt P28223). The experiment can be described thus: Receptor binding, 5-HT2A. Conditions: read-out: 5-HT2A Ki.

pKi: −log10 of the molar value.

As for `Nc1cc(F)ccc1OCCCN1CC[C@H]2[C@@H](C1)c1cccc3c1N2CC(=O)N3`, the pKi – broadly, the negative decadic logarithm of the Ki, by convention in mol/L – at D1 is 7.80; at Mu opioid receptor, 8.39; on SERT, 7.22; on D2, 9.00; at 5-HT2A, 9.47.
